From patent US20220401514A1, “ANTIMICROBIAL, BACTERIOPHAGE-DERIVED POLYPEPTIDES AND THEIR USE AGAINST GRAM-NEGATIVE AND ACID-FAST BACTERIA” (CONTRAFECT CORPORATION, priority 2019, published 2022)

Columns and labels:
human red blood cells = test: Hemolytic activity, minimal hemolytic concentration (MHC); assay type: cell-based; conditions: for Minimal hemolytic concentration (MHC): human red blood cells
[1] = Stability assessment: fold change in MIC after incubation in 100% human serum; assay type: in vitro ADME; conditions: for stability (fold change in MIC) in 100% human serum: 37° C., 1 hour, and 2 hours; for Fold change in MIC: incubation in 100% human serum at 37° C.
[2] = Stability assessment in rabbit serum; assay type: in vitro ADME; conditions: incubation in rabbit serum at 37° C.
[3] = Stability assessment in 100% CAA; assay type: in vitro ADME; conditions: incubation in 100% CAA at 37° C.

Substance	Minimal hemolytic concentration (MHC) (human red blood cells) [µg/mL]	stability (fold change in MIC) in 100% human serum ([1]; 10 minutes)	Fold change in MIC ([1]; 10 minutes)	Fold change in MIC ([1]; 1 hour)	Fold change in MIC ([1]; 2 hours)	Fold Change in MIC (rabbit serum) ([2]; 10 min.)	Fold Change in MIC (rabbit serum) ([2]; 1 hour)	Fold Change in MIC (rabbit serum) ([2]; 2 hours)	Fold change in MIC (100% CAA) ([3]; 10 min.)	Fold change in MIC (100% CAA) ([3]; 1 hour)	Fold change in MIC (100% CAA) ([3]; 2 hours)	hemolytic concentration range (human red blood cells; positive control detergent)
MAGKKMVSKGKDRQIFRKTADRTKKMNVRPLLYRGGIRL [Chp12]	>128	adequately stable	1	1	1	1	1	1	–	–	–	–
MAKKIRNKARDRRIFTRTASRMHKANRTPRFMRGGIRL [ALCES1]	>128	adequately stable	1	1	1	–	–	–	–	–	–	–
MAKKMTKGKDRQVFRKTADRTKKLNVRPLLYRGGIRL [Chp11]	>128	adequately stable	–	–	–	1	1	1	–	–	–	–
MAKRHKIPQRASQHSFTRHAQKVHPKNVPRLPMRGGIRL [AVQ244]	>128	adequately stable	1	1	0.5	1	1	1	–	–	–	–
MARRKKMKGKRDKRVFKQTANKTKAINISPKNMRGGTRL [Unp3]	>128	adequately stable	1	1	1	1	1	1	–	–	–	–
MARRRYRLPRRRSRRLFSRTALRMHPRNRLRRIMRGGIRF [Chp6]	>128	adequately stable	1	1	1	1	1	1	–	–	–	–
MARRYRLSRRRSRRLFSRTALRMHRRNRLRRIMRGGIRF	>128	adequately stable	1	1	0.5	1	2	4	–	–	–	–
MARSRRRMSKRSSRRSFRKYAKSHKKNFKARSMRGGIRL [Ecp2]	>128	adequately stable	1	2	2	1	1	1	–	–	–	–
MARSRRRMSKRSSRRSFRKYAKSHKKNFKARSMRGGIRL [Ecp4]	>128	–	–	–	–	–	–	–	–	–	–	–
MARSRRRMSKRSSRRSFRKYAKTHKKNFKARSMRGGIRL [Ecp3]	>128	adequately stable	1	1	1	1	1	2	–	–	–	–
MARSRRRMSKRSSRRSFRKYAKTHKRNFKARSMRGGIRL [Ecp1]	>128	adequately stable	1	4	1	1	2	1	–	–	–	–
MAYRGFKTSRVVKHRVRRRWFNHRRRYR [Spi1]	>128	adequately stable	1	2	2	1	1	2	–	–	–	–
MCKKVCKKCPKKGPKNAPKIGAFYERKTPRLKQST [CPAR39]	>128	adequately stable	1	0.5	0.5	1	0.5	0.25	–	–	–	–
MIVRRHKMSRRRSRKLFSKTASRTRSKNLRSRPMRGGYRI [Unp4]	>128	–	–	–	–	–	–	–	–	–	–	–
MKMRKRTDKRVFTRTAAKSKKVNIAPKIFRGGIRL [Unp1]	–	adequately stable	1	0.5	2	1	1	1	–	–	–	–
MKPLKRKPVQKARSAAKFRRNVSTVKAANMAVKPMRGGWRF [Fen7875]	–	–	–	–	–	1	1	1	–	–	–	–
MKRKPMSRKASQKTFKKNTGVQRMNHLNPRAMRGGIRL [Bdp1]	>128	adequately stable	1	1	0.25	1	1	1	1	1	0.5	–
MKRRKLSKKKSRKIFTRGAVNVKKRNLRARPMRGGFRI [Chp10]	>128	adequately stable	1	2	2	1	1	1	1	0.5	0.5	–
MKRRKMTRKGSKRLFTATADKTKSINTAPPPMRGGIRL [Chp7]	>128	adequately stable	1	1	1	2	0.5	0.5	1	1	1	–
MLTVWSDTPTIKRRKDMYRKRMSRKKSKKVFAKTAMKVNKRNHVKPMRGGYRI [Gkh3]	>128	adequately stable	1	1	1	1	1	1	1	0.5	0.5	–
MRKKMHKSLDKRVFNRTAKKSKKINVNPVVYRGGIRL [CDL907]	>128	adequately stable	1	1	1	–	–	–	–	–	–	–
MRPVKRSRVNKARSAGKFRKQVGKTKMANLRSNPMRGGWRL [HH3930]	–	–	–	–	–	1	1	1	–	–	–	–
Triton X-100 [reference compound]	–	–	–	–	–	–	–	–	–	–	–	2% to 0.007%
